PMC12138978, “Mu Opioid Receptor Positive Allosteric Modulator BMS-986122 Confers Agonist-Dependent G Protein Subtype Signaling Bias” (Biochemistry, 2025)
Marks after values point to notes of the source that are not given here.

Amino acid sequences for entries named in this document (tags omitted).
UniProt P35372, whole entry: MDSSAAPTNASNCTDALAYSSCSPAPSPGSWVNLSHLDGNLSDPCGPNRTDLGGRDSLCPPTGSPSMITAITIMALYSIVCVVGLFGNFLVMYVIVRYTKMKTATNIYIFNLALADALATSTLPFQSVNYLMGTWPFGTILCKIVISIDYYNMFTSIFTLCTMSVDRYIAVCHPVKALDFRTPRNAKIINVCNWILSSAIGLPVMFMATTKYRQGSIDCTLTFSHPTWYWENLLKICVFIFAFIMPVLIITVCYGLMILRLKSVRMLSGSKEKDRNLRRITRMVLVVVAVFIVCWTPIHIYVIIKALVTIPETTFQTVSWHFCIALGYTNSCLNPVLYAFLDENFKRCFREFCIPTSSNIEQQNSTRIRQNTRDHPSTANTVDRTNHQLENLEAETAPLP

Experiments:
[1] = biological target: T1, human MOR signaling through Gαz (Homo sapiens, UniProt P35372); format: cell-based
T1 construct: host or cells: HEK 293T, transient

[2] = biological target: T2, human MOR signaling through Gαi3 (Homo sapiens, UniProt P35372); format: cell-based
T2 construct: host or cells: HEK 293T, transient

[3] = biological target: T3, human MOR signaling through Gαi1 (Homo sapiens, UniProt P35372); format: cell-based
T3 construct: host or cells: HEK 293T, transient

[4] = biological target: T4, human MOR signaling through GαoB (Homo sapiens, UniProt P35372); format: cell-based
T4 construct: host or cells: HEK 293T, transient

[5] = biological target: T5, human MOR signaling through GαoA (Homo sapiens, UniProt P35372); format: cell-based
T5 construct: host or cells: HEK 293T, transient

[6] = biological target: T6, human MOR signaling through Gαi2 (Homo sapiens, UniProt P35372); format: cell-based
T6 construct: host or cells: HEK 293T, transient

[7] = biological target: human MOR (Homo sapiens, UniProt P35372); test: [3H]naloxone competition binding, MOR-CHO cell membranes, low-affinity buffer; conditions: fold change of Ki, vehicle vs 10 μM BMS-986122

## CSCC[C@H](NC(=O)[C@H](Cc1ccccc1)NC(=O)CNC(=O)CNC(=O)[C@@H](N)Cc1ccc(O)cc1)C(=O)O [Met-Enkephalin, methionine-enkephalin]
[1]
  ΔpEC50: 0.315 ± 0.091
[2]
  ΔpEC50: 0.639 ± 0.034
[3]
  ΔpEC50: 0.723 ± 0.049
[4]
  ΔpEC50: 0.578 ± 0.056
[5]
  ΔpEC50: 0.537 ± 0.038
[6]
  ΔpEC50: 0.475 ± 0.017
[7]
  Ki (Veh)/Ki (BMS): 6.0 **
